Experimental data reported in US11103459B2, “Method of drug formulation based on increasing the affinity of active agents for crystalline microparticle surfaces” (MannKind Corporation, priority 2005, dated 2021).

Test: Active agent/FDKP microparticle adsorption studies (loading curves, HPLC)
Assay type: physicochemical
Settings: aqueous solution, presence of salt
Procedure: Aqueous samples at varying pH and at 20° C. (unless otherwise noted) were analyzed.
The association of active agent with diketopiperazine (DKP) particles in suspension was evaluated by conducting adsorption studies.
Unbound active agent in the supernatant was filtered off the suspension. […] The amount of active agent in both the supernatant and reconstituted fractions was quantitated by HPLC. A series of experiments were conducted in which conditions employed included use of additives such as salts, osmolytes, chaotropes and kosmotropes, and alcohols.
The concentration of the chaotrope or kosmotrope in the samples was held constant at 100 mM and the pH varied from 2.0 to 5.0. Chaotropes or kosmotropes were selected from the following: NaSCN, CsCl, Na2SO4, (CH3)3N—HCl, […], Na Citrate, and NaClO4. The control indicates no chaotrope or kosmotrope were added. […]
In assessing the effect of modifiers on the active agent that allows for adsorption to the microparticle surface by a hydrophobic mechanism, the effect of alcohols were examined. […] Each alcohol was evaluated at varying concentrations which include 5%, 10%, 15%, or 20% v/v.
The amount of active agent detected in reconstituted microparticle-free control samples as a function of pH and NaCl concentration was assessed. […]

Substance: Texas Red [reference compound]
- partitioning of dye onto the microparticle surface: partition the dye Texas Red onto the surface of the microparticle
